These are literature values, as cited in patent US20240398651A1 (Neuro-Innovators, LLC., priority 2021, published 2024).

The target in this data set is angiotensin II receptor type 1 (AT1) (Homo sapiens, UniProt P30556). The conditions noted are these: selectivity AT1 over AT2.

As to `CCCc1nc2c(C)cc(-c3nc4ccccc4n3C)cc2n1Cc1ccc(-c2ccccc2C(=O)O)cc1` [Telmisartan], the “binding affinity greater for AT1 than AT2” value is reported as 3000 times.
